# Columns and labels:
# Sprague Dawley rats = test: Rat hemoglobin regeneration method, relative iron bioavailability (modified AOAC); type: in vivo; conditions: ratio of slope of each diet to slope of ferrous sulfate
# Experimental: […]. The relative iron availability of various iron compounds in a ready-to-eat breakfast cereal was tested using a widely accepted method, commonly referred to as the rat hemoglobin regeneration method, (modified AOAC method for assessment of relative iron bioavailability), see Williams, S. ed. Official methods of analysis of the Association of Official Analytical Chemists, 14th ed. Arlington, Va. AOAC, 1984; Fritz, J. C. et al., Collaborative Study of rat hemoglobin repletion test for bioavailability of iron, AOAC 1974, 57: 513-517. The testing for relative bioavailability of the various iron compounds was carried out in a series of separate experiments. In each of these experiments, ferrous sulfate was used as the standard or control compound.
# Sprague Dawley rats, individually housed in temperature and light controlled units, were fed an iron deficient diet obtained from Harland Tekland Laboratories for 24 days. […] After the 14 day test period, hemoglobin concentrations were determined for all animals.
# The bioavailability of each iron source tested relative to ferrous sulfate, was calculated by comparing gain in hemoglobin with the iron concentration in the diet by the slope ratio procedure (Finney, D. J., Statistical methods in biological assay. 2nd ed. 1964; Amine et L., Biological assessment of available iron in food products, J. Agric. Food Chem. 1974, 22: 470-476.). […]
# [1] = adverse storage conditions; cited from earlier work
compound,measurement,setting,value
"O=C([O-])CN(CCN(CC(=O)[O-])CC(=O)[O-])CC(=O)[O-].[Fe+3].[Na+] [Ferric EDTA, sodium ferric ethylenediaminetetraacetic acid complex]",Slope Ratio (bioavailability relative to ferrous sulfate),Sprague Dawley rats,0.94
same,Stability on storage and cooking,[1],more stable under adverse storage conditions and is unaffected by cooking
